Target: PNL4.3 protease (sensitive viral protease in its precursor context, wild HIV-1 strain pNL4.3) (Human immunodeficiency virus type 1 group M subtype B, UniProt P12497)
Assay: cell-based

## Cc1cccc(C)c1OCC(=O)N[C@@H](Cc1ccccc1)[C@@H](O)C[C@H](Cc1ccccc1)NC(=O)[C@H](C(C)C)N1CCCNC1=O [Lopinavir, lopinavir]
  IC50: 39.2 µM
